In patent EP1068184B1, “N-ARYLOXYETHYLAMINE DERIVATIVES FOR THE TREATMENT OF DEPRESSION” (Wyeth, priority 1998, dated 1999):
Like-named read-outs stand apart in the source and are kept apart here.

By UniProt entry, the sequences of proteins in these tests, tags left out.
UniProt P31652, whole entry: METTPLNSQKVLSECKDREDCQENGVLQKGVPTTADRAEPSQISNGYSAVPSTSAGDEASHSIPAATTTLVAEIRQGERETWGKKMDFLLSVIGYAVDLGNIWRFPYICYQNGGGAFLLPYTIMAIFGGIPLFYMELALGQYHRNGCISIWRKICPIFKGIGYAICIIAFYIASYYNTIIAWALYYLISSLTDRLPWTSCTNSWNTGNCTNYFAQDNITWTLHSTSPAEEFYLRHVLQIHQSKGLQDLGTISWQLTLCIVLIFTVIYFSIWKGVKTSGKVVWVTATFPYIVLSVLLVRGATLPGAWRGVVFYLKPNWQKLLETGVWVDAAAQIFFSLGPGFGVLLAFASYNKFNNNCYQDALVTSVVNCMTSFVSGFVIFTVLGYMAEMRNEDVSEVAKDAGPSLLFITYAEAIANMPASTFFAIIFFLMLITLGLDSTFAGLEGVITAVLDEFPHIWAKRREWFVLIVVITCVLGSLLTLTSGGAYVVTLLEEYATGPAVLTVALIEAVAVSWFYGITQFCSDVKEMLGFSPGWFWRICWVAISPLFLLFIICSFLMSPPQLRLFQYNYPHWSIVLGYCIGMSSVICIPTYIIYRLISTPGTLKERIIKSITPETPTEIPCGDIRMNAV

Molecular target: T1, serotonin transporter (Rattus norvegicus, UniProt P31652)
T1 construct: frontal cortical membranes prepared from male Sprague-Dawley rats; from tissue; host or cells: rat frontal cortex membranes
Test: serotonin transporter affinity, 3H-paroxetine binding to frontal cortical membranes
Design: species or system male Sprague-Dawley rats
Conditions: read-out: ST (Ki)
Method: Briefly, frontal cortical membranes prepared from male Sprague-Dawley rats were incubated with ^3H-paroxetine (0.1 nM) for 60 min at 25°C. All tubes also contained either vehicle, test compound (one to eight concentrations), or a saturating concentration of fluoxetine (10 µM) to define specific binding. All reactions are terminated by the addition of ice cold Tris buffer followed by rapid filtration using a Tom Tech filtration device to separate bound from free ^3H-paroxetine.

[1] = 3H-paroxetine 0.1 nM, rat frontal cortical membranes

With COc1ccccc1OCCN[C@H]1CC[C@@H](c2c[nH]c3ccc(F)cc32)CC1 [Example 1a, [(cis)-4-(5-Fluoro-1H-indol-3-yl)-cyclohexyl]-[2-(2-methoxy-phenoxy)-ethyl]-amine] the Ki [1] was 6.76 nM.

Molecule COc1ccccc1OCCN[C@H]1CC[C@H](c2c[nH]c3ccc(F)cc32)CC1 [Example 1b, [(trans)-4-(5-Fluoro-1H-indol-3-yl)-cyclohexyl]-[2-(2-methoxy-phenoxy)-ethyl]-amine] has a Ki [1] of 6.48 nM.

OC1(CNCCOc2cccc3[nH]ccc23)CCC(c2c[nH]c3ccc(F)cc23)CC1 (stereo not drawn) [Example 13, (1,4)-4-(5-Fluoro-1H-indol-3-yl)-1-([2-(1H-indol-4-yloxy)-ethylamino]-methyl}-cyclohexanol] gave a Ki of 21 nM.
